Laboratory results as given in PubChem BioAssay AID651582 (Sanford-Burnham Center for Chemical Genomics, 2012).
The list shows a part of the results, in another mix than the full data. The source made the active and inactive calls.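 The calls were made as follows: active = pattern-corrected inhibition of lipid staining of at least 50% with the nuclear-stain viability signal not falling by more than 50%; inactive = the rest, inconclusive results apart.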

Test: inhibitors of triacylglycerol accumulation, primary screen, cell-based, uHTS, fluorescence, H9c2 (AID 651582);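 also: 0% = DMSO wells and 100% = triacsin C control wells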
Details: H9c2 cells, Nile Red lipid (TAG) fluorescence; at 12.5 µM; active compounds read high; cells loaded with 200 µM oleic acid

SMILES | inhibition
O=P(Nc1ccccn1)(c1ccc(Br)cc1)c1ccc(Br)cc1 | inactive: -13.5%
